Laboratory results reported in PMC11320734 (ACS Pharmacology & Translational Science, 2024).

Amino acid sequences for entries named in this document (tags omitted). A change or cut given only in a name is not applied to a line headed by its entry.
UniProt P47936: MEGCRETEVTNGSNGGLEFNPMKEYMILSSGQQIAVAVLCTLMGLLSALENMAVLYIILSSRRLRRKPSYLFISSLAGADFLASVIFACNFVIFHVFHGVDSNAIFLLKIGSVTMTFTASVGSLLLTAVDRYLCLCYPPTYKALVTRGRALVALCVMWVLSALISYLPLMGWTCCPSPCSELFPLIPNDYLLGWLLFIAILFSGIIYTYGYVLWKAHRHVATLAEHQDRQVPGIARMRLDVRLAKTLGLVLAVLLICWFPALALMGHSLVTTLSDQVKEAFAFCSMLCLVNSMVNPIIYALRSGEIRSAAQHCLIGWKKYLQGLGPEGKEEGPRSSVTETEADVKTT

Molecular target: CB2R in wild-type mouse spleen membranes (Mus musculus, UniProt P47936)
Conditions: WT mouse spleen membranes

Row | Structure (SMILES) | reduction of [3H]-RNB-61 radioactivity (competitor 10 μM) | reduction of [3H]-RNB-61 radioactivity (competitor 1 μM)
1 | Cc1c(C(=O)c2cccc3ccccc23)c2cccc3c2n1[C@H](CN1CCOCC1)CO3 [WIN55,212–2] | significant reduction | 
2 | Cc1c(C(=O)NN2CCCCC2)nn(-c2ccc(Cl)cc2Cl)c1-c1ccc(Cl)cc1 [SR1] |  | did not result in a significant difference

Read-outs that look alike come from different tables or passages of the source.
